Type: physicochemical
Settings: moderately clean produced water, formulation partially reacted with acid

## Chlorite ion [ClO2^−]
  time for which activity is detected / ion lasts: 4 to 7 days

Reference: patent publication US11572296B1, “Method for extending time of activity of chlorite-based biocides” (priority 2020, dated 2023)
